# Reference: patent publication US20090130261A1, “Vit-A-Cup” (priority 2007, published 2009)
# Test: solubility characteristics of additives
# Settings: require suspension prior to administration to the cup
compound,measurement,value
[Ca+2] [Calcium],solubility,Insoluble
